The experiment concerns NanoLuc luciferase (engineered Oplophorus gracilirostris luciferase). Briefly: Biochemical NLuc saturation counterscreen for small molecule modulators of PMP22 gene expression - Nano-Glo assay. The following applies: Secreted NLuc enzyme (filtered S16 cell medium), Nano-Glo luminescence; at 57.5 µM (top of the series). From the text: Assay Provider: Jim Inglese Ph.D. National Center for Advancing Translational Science, National Institutes of Health, Rockville, MD CMT is a heterogeneous group of neurological disorders that affect approximately 1 in 2,500 people. In particular, the most common form of CMT, CMT1A is genetically linked to the duplication of the PMP22 gene which leads to Schwann cell overexpression, thus manifesting itself as a typical case of dose-sensitive diseases. […] We can further discriminate the effect of all transcriptionally active molecules on PMP22 translation or stability with an assay that incorporates a short NLuc peptide (HiBiT) at the C-terminus of expressed PMP22 (S16(f8) PMP22-HiBiT) allowing alpha complementation and luminescence detection of membrane-associated PMP22 protein. […] Miniaturization of these assays to 1536-well plate format for quantitative high throughput screening (qHTS) yielded rich data sets immediately from the qHTS assay (S16(c9) Pmp22-F2sN), when compared with data from a cell viability assay (Cell TiterGlo) to identify compounds that decreased the output signals through cellular toxicity to streamline the selection process of actives for subsequent characterization using the HiBiT assay (S16(f8) PMP22-HiBiT). […]
A general note: A counterscreen serves to expose hits that act by an unwanted route or on another target.

The list shows a part of the results, in another mix than the full data. Records with an inconclusive call do not appear. Calls of active or inactive are those of the source. Calls follow the shape of the dose curve; as a rule, active = well fitted inhibition curve with a large enough effect; inconclusive = small, poorly fitted or top-dose-only effect; inactive = flat fitted curve, though single readings scatter.
% is scaled to controls: 0 for no effect and ±100 for the full control effect.

For the compound `CC(C)(C)c1ccc(C(=O)NCC2(N3CCOCC3)CCCCC2)cc1`, the activity change, negative = inhibition is inactive: -3.07%.

The record behind these values is PubChem BioAssay AID1508638 (National Center for Advancing Translational Sciences (NCATS), 2021).
